Results published in patent publication US20220241333A1, “MODULATION OF T CELL CYTOTOXICITY AND RELATED THERAPY” (Cancer Research Technology Limited, priority 2019, published 2022).

What was measured:
human naive CD4+ T cells = experiment: GzmB expression in aCD3/aCD28-stimulated human naive CD4+ T cells; type: cell-based; details: addition of exogenous IL-2 (100 UI/ml), sixty percent without
Protocol: FACS-purified human CD4^+ T cells were cultured in RPMI complete medium with irradiated autologous feeders cells in 1:1 ratio for 96 h, stimulated with aCD3 (OKT3) and aCD28 (9.3; BioXcell). To some wells anti-CD25 antibody (Basiliximab; Novartis) was added 48 hours post aCD3/CD28 stimulation.
We next tested whether endogenous IL-2 was required for the differentiation of human Th-ctx cells.

[1] = test system: CD4+ Trp1 and OT-II T cells; experiment: GzmB upregulation in CD4+ Trp1 and OT-II TCR Tg T cells stimulated in vitro with antigen and cytokines; type: cell-based, mouse; details: low antigen concentration (0.01 μM OVA peptide), comparison of CGAMMA chain cytokines
Protocol: (§1) Purified CD4+ T cells (CD4 T cells beads, Miltenyi or CD4 Dyna Beads, Invitrogen) were cultured in RPMI complete medium (as above) together with DC and irradiated feeder cells (40 Gy) in 2:1:1 ratio for 72 or 96 h. Polyclonal CD4+ T cells were stimulated with anti-CD3 (2C11) and anti-CD28 (37.51) (BioXcell); OT-II cells with OVA peptide (Pepscan) and Trp-1 cells with Trp-1 peptide (Pepscan) at concentration indicated in figure legend. Mouse CD4 T cells were cultured with aCD25 (PC61) and aIL-2 (JES6-1A12, BioXcell).
The increased expression of genes associated with CGAMMA chain cytokine signalling and the response to IL-2 in Trp1 Th-ctx is consistent with the cytokine milieu known to be induced by lymphodepletion (Williams et al., 2007) and could offer mechanistic insights into the acquisition of cytotoxic activity by tumour reactive CD4^+ T cells in vivo. We therefore evaluated the potential contribution of CGAMMA receptor cytokines to the upregulation of GzmB in tumour-reactive CD4^+ T cells. Briefly, CD4^+Trp1 and OTII TCR Tg T cells were stimulated in vitro for three days with different amounts of cognate antigen and in the presence or absence of IL-2, IL-7 or IL-15. […] Of key relevance, endogenous IL-2 was critical for GzmB upregulation in vitro as both IL-2 neutralisation and CD25 receptor blockade reduced GzmB upregulation in response to antigen (FIGS. 2C and 9A).

[2] = test system: polyclonal mouse CD4+ T cells; experiment: GzmB and T-bet expression in polyclonal mouse CD4+ T cells stimulated in vitro; type: cell-based; details: low doses of αCD3, increasing amounts of exogenous IL-2
Protocol: as §1
The high levels of T-bet expression in CD4^+Trp1 and OTII Th-ctx cells lead us to evaluate its possible association with IL-2 and GzmB upregulation. […] Further validation was obtained using polyclonal mouse CD4^+ T cells stimulated in vitro with αCD3 in the presence or absence of exogenous IL-2, aCD28 and/or neutralising anti IL-2.

[3] = test system: human CD4+ Teff cells co-cultured with autologous Treg cells; experiment: Human Treg suppression assay (GzmB and proliferation of CD4+ Teff); type: cell-based; details: co-culture with autologous Treg cells, even at the highest Treg:Teff ratios
From the text: For Treg suppression assays FACS-purified naïve mouse or human CD4+ T cells were co-cultured with autologous Treg cells at indicated ratios.
IL-2 deprivation is thought to be an important mechanism utilised by Treg cells to suppress T cell-mediated immunity, primarily impacting on proliferation and survival (Sakaguchi et al., 2008). To determine whether Tregs also suppress acquisition of cytotoxic potential by CD4 cells, we activated purified human naïve CD4^+ T cells with αCD3/αCD28 and co-cultured them with different numbers of autologous Treg cells.

## IL-2: cytokine (Peprotech) added to T cell cultures
Human naive CD4+ T cells
  Percentage of GzmB+ CD4s: ninety five
[1]
  Induction of GzmB: most potent inducer
[2]
  GzmB expression: significantly augmented
[3]
  GzmB production and proliferation by CD4+ Teff cells: able to revert both effects
